Measured values: patent US10111937B2, “Method of reducing accumulation of intracellular tingible body macrophages” (THE REGENTS OF THE UNIVERSITY OF MICHIGAN, priority 2008, dated 2018)

Molecular target: T1, recombinant mouse LPLA2 (Mus musculus, UniProt Q8VEB4)
T1 sequence (Q8VEB4 34-412): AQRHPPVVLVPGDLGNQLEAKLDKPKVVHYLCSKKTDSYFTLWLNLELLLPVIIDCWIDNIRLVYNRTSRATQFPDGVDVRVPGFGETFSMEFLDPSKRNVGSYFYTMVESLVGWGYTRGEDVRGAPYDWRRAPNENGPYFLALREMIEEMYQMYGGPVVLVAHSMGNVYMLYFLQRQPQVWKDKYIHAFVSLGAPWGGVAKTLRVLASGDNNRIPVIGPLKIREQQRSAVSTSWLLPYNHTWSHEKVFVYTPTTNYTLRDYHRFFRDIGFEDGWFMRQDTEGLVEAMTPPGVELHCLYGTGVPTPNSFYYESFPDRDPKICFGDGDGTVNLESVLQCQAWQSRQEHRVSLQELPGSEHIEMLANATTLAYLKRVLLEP
Test: 1-O-acylceramide synthase (transacylase) activity of recombinant LPLA2 on liposomes, 1-O-oleoyl-NAS by HPTLC
Assay type: biochemical
Settings: DOPC/sulfatide/NAS liposomes pre-incubated with drug 5 min at 37° C., pH 4.5; FIG. 12C
Protocol: To address this possibility, the 1-O-acylceramide synthase activity of LPLA2 was studied in liposomes in which the anionic lipid content was varied by the addition of sulfatide, a negatively charged, sulfate containing glycolipid that is not a substrate for LPLA2. Di-octanoyl-PC (DOPC) was used as the liposomal substrate. The reaction mixture contained 48 mM sodium citrate (pH 4.5), 10 μg/ml BSA, liposomes (127 μM phospholipid) and 14.5 ng/ml of recombinant mouse LPLA2 in 500 μl of total volume. Liposomes consisting of DOPC/NAS (3:1, molar ratio) or DOP/sulfatide/NAS (3:0.3:1, molar ratio) were incubated with the enzyme for 5, 10, 15, 30 and 45 min at 37° C. The reaction products were extracted and separated by an HPTLC plate using a solvent system consisting of chloroform/acetic acid (9:1, v/v). The reaction product, 1-O-oleoyl-NAS, quantified by scanning the plate, was plotted against time (FIG. 11A). […]
The reaction mixture contained 0-500 mM NaCl, 48 mM sodium citrate (pH 4.5), 10 μg/ml BSA, liposomes (127 μM phospholipid) and either 14.5 ng/ml of recombinant mouse LPLA2 (+) or 7.8 μg protein/ml of the soluble fraction obtained from MDCK cells transfected with mouse LPLA2 (+) in 500 μl of total volume. […] One of the products, 1-O-oleoyl-NAS, quantified by scanning the plate, was plotted against NaCl concentration (FIG. 12A). […]

CCCCc1oc2ccccc2c1C(=O)c1cc(I)c(OCCN(CC)CC)c(I)c1 [amiodarone]
LPLA2 enzyme activity (1-O-oleoyl-NAS formation) with increasing drug concentration: inhibited the enzyme activity
